Earlier results as cited in patent US20070264354A1, “TREATMENT OF A WOUND WITH A VASODILATOR” (priority 2006, published 2007).

Columns and labels:
human skin [1] = conditions: cited from earlier work
human skin [2] = conditions: microdialysis (Weidner et al, 2000); cited from earlier work
[3] = Brain and Cambridge, 1996; cited from earlier work
musculocutaneous flap = conditions: rat (Kjartannson et al, 1988b); cited from earlier work
skin flap = conditions: pig (Heden et al, 1989); cited from earlier work
[4] = tested on: hamster cheek pouch, rat paw and human skin; conditions: histamine, leukotrine; nanomolar dose range (Raud et al, 1991); cited from earlier work
[5] = tested on: surgical or traumatic flaps; conditions: intravenous, patients with ischemia and/or venous stasis (Jernbeck and Dalsgaard, 1993); cited from earlier work
wounds = conditions: intradermally around wounds, rats (Engin, 1998); cited from earlier work
venous stasis ulcers = conditions: CGRP and VIP given together by iontophoresis (Gherardini et al, 1998b); cited from earlier work

What does the source list for “CGRP: 37 amino acid peptide, potent endogenous vasodilator of the microcirculation”?
sensory effects (pain, itch producing) (human skin [1]; Weidner and Wallengren): does not have sensory effects; blood flow (flare reaction) (human skin [1]; intradermal, femtomole doses, humans (Brain et al, 1985)): increased blood flow; vasodilatation (human skin [2]): dose-dependent increases in vasodilatation; stability in interstitial tissue fluid [3]: stable; cutaneous blood flow in flap (musculocutaneous flap): increased cutaneous blood flow; skin flap survival (skin flap): increased skin flap survival; edema-promoting action of inflammatory mediators [4]: inhibit edema-promoting action of inflammatory mediators; tissue circulation by LDF [5]: improved tissue circulation; wound healing, contraction rate (wounds): increasing the contraction rate; healing of venous stasis ulcers (venous stasis ulcers): improved healing of venous stasis ulcers
